{
  "sequences": {"note": "The chains behind the UniProt entries cited, without tags or fusion partners. Residues count along the entry.", "UniProt P21589, 27-547 limits assumed": "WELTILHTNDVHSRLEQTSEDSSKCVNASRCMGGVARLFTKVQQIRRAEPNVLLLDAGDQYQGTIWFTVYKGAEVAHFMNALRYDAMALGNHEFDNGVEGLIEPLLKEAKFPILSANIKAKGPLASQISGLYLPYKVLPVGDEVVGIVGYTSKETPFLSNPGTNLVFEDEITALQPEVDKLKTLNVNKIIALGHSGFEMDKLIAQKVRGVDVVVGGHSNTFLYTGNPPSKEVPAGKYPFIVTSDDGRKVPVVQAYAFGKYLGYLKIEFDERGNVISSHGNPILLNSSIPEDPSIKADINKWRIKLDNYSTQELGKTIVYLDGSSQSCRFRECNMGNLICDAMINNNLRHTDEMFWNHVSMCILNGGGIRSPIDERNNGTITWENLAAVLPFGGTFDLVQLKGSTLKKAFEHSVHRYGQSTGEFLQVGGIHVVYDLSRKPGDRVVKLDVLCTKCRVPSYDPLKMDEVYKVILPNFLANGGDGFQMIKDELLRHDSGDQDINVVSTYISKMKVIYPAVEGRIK"},
  "source": "patent US20220363709A1",
  "about": "“ECTONU[…] METHODS OF USE THEREOF” (priority 2019, published 2022)",
  "target": "recombinant CD73 (Homo sapiens, UniProt P21589)",
  "assay": "Assay 1: Inhibition of the CD73 Enzyme In Vitro",
  "details": "read-out: Assay 1 CD73 IC50; soluble recombinant CD73 0.5 nM, AMP 50 μM, 30 minutes at room temperature, Malachite Green, absorbance at 630 nm",
  "note": "pIC50: −log10 of the molar value.",
  "data": [
    {"smiles": "Nc1nc(Cl)nc2c1ncn2[C@@H]1O[C@H](CO[C@@](Cc2ccccc2)(C(=O)O)c2nc[nH]n2)[C@@H](O)[C@H]1O", "note": "(single isomer, unassigned)", "values": [
      {"measurement": "pIC50", "value": 5.23}
    ]},
    {"smiles": "Nc1nc(Cl)nc2c1ncn2[C@@H]1O[C@H](CO[C@](Cc2ccccc2)(C(=O)O)c2nc[nH]n2)[C@@H](O)[C@H]1O", "note": "(single isomer, unassigned)", "values": [
      {"measurement": "pIC50", "value": 6.38}
    ]}
  ]
}
